In US20070161060:

B1: kinase dead PIPKIγ635 (protein)
chain: MELEVPDEAESAEAGAVPSEAAWAAESGAAAGLAQKKAAPTEVLSMTAQPGPGHGKKLGHRGVDASGETTYKKTTSSTLKGAIQLGIGYTVGHLSSKPERDVLMQDFYVVESIFFPSEGSNLTPAHHFQDFRFKTYAPVAFRYFRELFGIRPDDYLYSLCNEPLIELSNPGASGSLFYVTSDDEFIIKTVMHKEAEFLQKLLPGYYMNLNQNPRTLLPKFYGLYCVQSGGKNIRVVVMNNILPRVVKMHLKFDLKGSTYKRRASKKEKEKSFPTYKDLDFMQDMPEGLLLDADTFSALVKTLQRDCLVLESFKIMDYSLLLGVHNIDQHERERQAQGAQSTSDEKRPVGQKALYSTAMESIQGGAARGEAIESDDTMGGIPAVNGRGERLLLHIGIIDILQSYRFIKKLEHTWKALVHDGDTVSVHRPSFYAERFFKFMSNTVFRKNSSLKSSPSKKGRGGALLAVKPLGPTAAFSASQIPSEREEAQYDLRGARSYPTLEDEGRPDLLPCTPPSFEEATTASIATTLSSTSLSIPERSPSETSEQPRYRRRTQSSGQDGRPQEEPPAEEDLQQITVQVEPACSVEIVVPKEEDAGVEASPAGASAAVEVETASQASDEEGAPASQASDEEDAPA
B2: HA-tagged PIPKIγ661 Ser645Phe (protein)
chain: MELEVPDEAESAEAGAVPSEAAWAAESGAAAGLAQKKAAPTEVLSMTAQPGPGHGKKLGHRGVDASGETTYKKTTSSTLKGAIQLGIGYTVGHLSSKPERDVLMQDFYVVESIFFPSEGSNLTPAHHFQDFRFKTYAPVAFRYFRELFGIRPDDYLYSLCNEPLIELSNPGASGSLFYVTSDDEFIIKTVMHKEAEFLQKLLPGYYMNLNQNPRTLLPKFYGLYCVQSGGKNIRVVVMNNILPRVVKMHLKFDLKGSTYKRRASKKEKEKSFPTYKDLDFMQDMPEGLLLDADTFSALVKTLQRDCLVLESFKIMDYSLLLGVHNIDQHERERQAQGAQSTSDEKRPVGQKALYSTAMESIQGGAARGEAIESDDTMGGIPAVNGRGERLLLHIGIIDILQSYRFIKKLEHTWKALVHDGDTVSVHRPSFYAERFFKFMSNTVFRKNSSLKSSPSKKGRGGALLAVKPLGPTAAFSASQIPSEREEAQYDLRGARSYPTLEDEGRPDLLPCTPPSFEEATTASIATTLSSTSLSIPERSPSETSEQPRYRRRTQSSGQDGRPQEEPPAEEDLQQITVQVEPACSVEIVVPKEEDAGVEASPAGASAAVEVETASQASDEEGAPASQASDEEDAPATDIYFPTDERSWVYFPLHYSAQAPPA

Biological target: AP2 adaptor protein complex (endogenous)

Row | Protein | transferrin endocytosis (MDCK stable line)
1 | B1 | had no appreciable effect on transferrin endocytosis
2 | B2 | also had a stimulatory effect in MDCK cells, but to a greater extent than that of wild-type PIPKIγ661
